Ab-14 heavy chain CDR variants: yeast mating affinities

The measurements come from Engelhart et al. 2022 (doi:10.1038/s41597-022-01779-4) through the FLAb antibody collection.

Antigen: PDVDLGDISGINAS, a 14-residue peptide of the SARS-CoV-2 spike HR2 region.

Parent scFv Ab-14: VH joined to VL by a 15-residue (Gly4Ser)3 linker. Changes lie in the heavy chain CDRs alone.
VH: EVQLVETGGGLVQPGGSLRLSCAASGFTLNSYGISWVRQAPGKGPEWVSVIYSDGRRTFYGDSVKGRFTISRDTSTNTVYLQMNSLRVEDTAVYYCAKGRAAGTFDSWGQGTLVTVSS
VL: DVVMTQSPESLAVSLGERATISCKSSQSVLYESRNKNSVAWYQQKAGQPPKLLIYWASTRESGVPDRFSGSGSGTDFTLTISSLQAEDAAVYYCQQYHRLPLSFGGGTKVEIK

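Phage display of a naive human antibody library on the peptide gave the parent. In library AAYL49, one, two or three CDR residues were substituted; doubles and triples were drawn at random. The assay is AlphaSeq: two haploid yeast populations carry antibody and antigen on their surface. After mating in shaken culture at 30 °C for 16 h, diploids were selected and their barcode pairs sequenced. Scores were corrected for input abundance and mapped to Kd with protein pairs of known affinity run in the same pool. Mating was done three times.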

Changes read parent residue, position, new residue, counted from the first residue of the VH shown. Affinities are written as log10 Kd with Kd in nM; a lower number is a better binder. Averages over replicates are reported, and they cover detected replicates only. "ND" means that the variant was in the library but no mating with the target was seen in that replicate; the authors take this as a sign of poor binding, and no number exists. Nonspecific signal, from three strains lacking the peptide, appeared in 15% of pairings of library AAYL49, centred on 4.06 (5% of these signals below 2.83); values are not corrected for it. For each scFv, signals with the empty controls are counted beside the result, with their mean in brackets.

{"changes": "G26E+Y32C+G61Y", "log10 Kd, replicates": "5.67 / 2.84 / ND", "mean, log10 nM": "4.26", "control signals": "3/9 (4.25)"}
{"changes": "Y60S+A102C+G103K", "log10 Kd, replicates": "4.93 / 3.01 / ND", "mean, log10 nM": "3.97", "control signals": "0/9"}
{"changes": "G26L+S63V+A101K", "log10 Kd, replicates": "ND / ND / ND", "mean, log10 nM": "ND", "control signals": "0/9"}
{"changes": "T28E+N30E+K65D", "log10 Kd, replicates": "0.85 / 0.99 / 0.96", "mean, log10 nM": "0.94", "control signals": "1/9 (3.65)"}
{"changes": "G61C+S63H", "log10 Kd, replicates": "1.78 / 1.67 / 1.56", "mean, log10 nM": "1.67", "control signals": "1/9 (3.32)"}
{"changes": "Y52S+S53V+T58H", "log10 Kd, replicates": "2.35 / ND / ND", "mean, log10 nM": "2.35", "control signals": "0/9"}
{"changes": "N30Y+S31C+F59W", "log10 Kd, replicates": "2.61 / 2.38 / 2.66", "mean, log10 nM": "2.55", "control signals": "3/9 (4.15)"}
{"changes": "G26N+T104Y", "log10 Kd, replicates": "1.95 / 1.58 / 1.75", "mean, log10 nM": "1.76", "control signals": "7/9 (4.19)"}
{"changes": "G33T+Y52L+G61L", "log10 Kd, replicates": "ND / ND / ND", "mean, log10 nM": "ND", "control signals": "1/9 (3.34)"}
{"changes": "S35K+G99Q+S107I", "log10 Kd, replicates": "ND / ND / ND", "mean, log10 nM": "ND", "control signals": "0/9"}
{"changes": "G33W+R56I+A101R", "log10 Kd, replicates": "ND / ND / ND", "mean, log10 nM": "ND", "control signals": "2/9 (3.86)"}
{"changes": "V64G+F105G", "log10 Kd, replicates": "5.07 / ND / ND", "mean, log10 nM": "5.07", "control signals": "2/9 (3.65)"}
{"changes": "I34N+G99I+S107H", "log10 Kd, replicates": "ND / ND / ND", "mean, log10 nM": "ND", "control signals": "0/9"}
{"changes": "T28Q+D62H+G99W", "log10 Kd, replicates": "5.29 / 4.02 / 4.09", "mean, log10 nM": "4.47", "control signals": "6/9 (4.40)"}
{"changes": "F27L+Y32G+D62P", "log10 Kd, replicates": "3.96 / ND / ND", "mean, log10 nM": "3.96", "control signals": "3/9 (4.21)"}
{"changes": "S35N+R56A+G103N", "log10 Kd, replicates": "ND / ND / 1.89", "mean, log10 nM": "1.89", "control signals": "0/9"}
{"changes": "N30H+R57I+G99S", "log10 Kd, replicates": "4.57 / 3.58 / 5.34", "mean, log10 nM": "4.49", "control signals": "3/9 (3.98)"}
{"changes": "G26H+N30L+S35F", "log10 Kd, replicates": "ND / ND / ND", "mean, log10 nM": "ND", "control signals": "0/9"}
{"changes": "G33T+S53G+R57K", "log10 Kd, replicates": "ND / 3.64 / ND", "mean, log10 nM": "3.64", "control signals": "1/9 (4.57)"}
{"changes": "G33N+I34A+R56T", "log10 Kd, replicates": "4.77 / ND / ND", "mean, log10 nM": "4.77", "control signals": "0/9"}
{"changes": "S31D+T58L+F105I", "log10 Kd, replicates": "ND / ND / 5.19", "mean, log10 nM": "5.19", "control signals": "1/9 (3.52)"}
{"changes": "F27P+Y52F+A102C", "log10 Kd, replicates": "ND / ND / 4.19", "mean, log10 nM": "4.19", "control signals": "0/9"}
{"changes": "G26F+Y32V+T58D", "log10 Kd, replicates": "3.31 / 2.50 / 2.92", "mean, log10 nM": "2.91", "control signals": "2/9 (3.46)"}
{"changes": "S31Y+S53E+T58N", "log10 Kd, replicates": "ND / 4.86 / ND", "mean, log10 nM": "4.86", "control signals": "1/9 (5.59)"}
{"changes": "T28P+G33P+Y52E", "log10 Kd, replicates": "4.63 / ND / ND", "mean, log10 nM": "4.63", "control signals": "3/9 (4.23)"}
{"changes": "G26T+D62H", "log10 Kd, replicates": "3.08 / 2.38 / 3.03", "mean, log10 nM": "2.83", "control signals": "0/9"}
{"changes": "Y60G+A102C+T104F", "log10 Kd, replicates": "4.10 / 3.19 / ND", "mean, log10 nM": "3.64", "control signals": "2/9 (4.51)"}
{"changes": "D62H", "log10 Kd, replicates": "2.13 / 1.86 / 1.74", "mean, log10 nM": "1.91", "control signals": "2/9 (3.73)"}
{"changes": "R57N+K65G+G99C", "log10 Kd, replicates": "ND / ND / 5.00", "mean, log10 nM": "5.00", "control signals": "1/9 (3.62)"}

A selection of 3 entries from above:

changes,"log10 Kd, replicates","mean, log10 nM",control signals
G26T+D62H,3.08 / 2.38 / 3.03,2.83,0/9
Y60G+A102C+T104F,4.10 / 3.19 / ND,3.64,2/9 (4.51)
N30Y+S31C+F59W,2.61 / 2.38 / 2.66,2.55,3/9 (4.15)